Screens: PubChem, ICCB-Longwood Screening Facility, Harvard Medical School
GIV Gai3 FP: GIV-Galpha-i interaction inhibition. P08753. Galpha-i3/FITC-GIV peptide fluorescence polarization, 90 min; active compounds read low; scaled: aluminum fluoride 0%, vehicle 100%. percent of control (FP), % (test concentration not listed). 210,000 compounds, 0.42% hits. AID 1224905;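 active = replicate mean at 85% of control or lower, very high polarization wells dropped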;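 also: lower values mean more displacement of the GIV peptide from Galpha-i3; wells of about 15 µL received 100 nL stock; the first replicate is given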
An asterisk follows results filed as active. The entries come from a sample that favours hits as a whole.

entry | GIV Gai3 FP | canonical_smiles
1 | 100 | Cn1nc(C(F)(F)F)cc1C(=O)N1CCCC1c1ccc(F)cc1 (stereo not given)
2 | 108 | CC(C)(C)C1CCc2c(sc3nc(-c4cc5ccccc5oc4=O)[nH]c(=O)c23)C1 (stereo not given)
3 | -66* | CCN(CC)c1ccc2cc(-c3nc4sc5c(c4c(=O)[nH]3)CCC(C(C)(C)C)C5)c(=O)oc2c1 (stereo not given)
4 | 97 | CC(C)(C)C1CCc2c(sc3nc(-c4cc5cc(Br)ccc5oc4=O)[nH]c(=O)c23)C1 (stereo not given)
5 | 106 | COc1ccc2sc(N(CCN(C)C)C(=O)c3ccc(C(=O)c4ccccc4)cc3)nc2c1
6 | 114 | COc1cccc(-c2nc(Cn3c(C(=O)c4cccc(F)c4)nc4ccccc43)c(C)o2)c1OC
7 | 102 | CCN1/C(=C\C(=S)Nc2ccccc2)Sc2ccccc21
8 | -24* | CCN1/C(=C/C2=CC(=O)CC(C)(C)C2)Sc2ccccc21
9 | 104 | CCN1C(=O)CCSc2ccccc21
10 | 95 | CN1C(=C2C(=O)CC(C)(C)CC2=O)Sc2ccccc21
11 | -34* | CCN1/C(=C\C=C2C(=O)OC(C)(C)OC2=O)Sc2ccccc21
12 | 100 | CCN1/C(=C\C(=O)C2CC2)Sc2ccccc21
13 | 103 | CC(C)NC(=S)NC(=O)c1cccnc1
14 | 100 | CCN1CCN(c2cc(C)nc3c(-c4ccc(F)cc4)c(C(F)(F)F)nn23)CC1
15 | 106 | COc1ccc(CCNC(=O)CSc2nc(-c3cccs3)nc3c2c(=O)n(C)c(=O)n3C)cc1OC
16 | -14* | COc1cccc2c1C(=O)c1c(O)c3c(c(O)c1C2=O)C[C@@](O)(C(=O)CO)C[C@@H]3O[C@H]1C[C@H](N)[C@H](O)[C@H](C)O1
17 | 111 | COC(=O)c1ccc(Cl)cc1NC(=O)CSc1ncc(S(=O)(=O)c2ccc(Br)cc2)c(=O)[nH]1
18 | 25* | Cc1ccc(NC(=O)c2sc3nc(-c4cc5ccccc5oc4=O)[nH]c(=O)c3c2C)c(C)c1
19 | 104 | Cc1ccc(NC(=O)c2sc3nc(C)nc(N4CCN(C)CC4)c3c2C)c(C)c1
20 | 102 | Cc1c(C(=O)Nc2ccccc2)sc2nc(-c3cc4ccccc4oc3=O)[nH]c(=O)c12

entry | GIV Gai3 FP | canonical_smiles
21 | 85* | COc1cc(OC)c(Nc2c(C(=O)N3CCOCC3)cnc3ccccc23)cc1Cl
22 | 104 | CCOc1ccccc1Nc1c(C(=O)N2CCOCC2)cnc2ccccc12
23 | 99 | Cc1c(Cl)cccc1Nc1c(C(=O)N2CCOCC2)cnc2ccccc12
24 | 101 | C=CCn1c(CN(c2ccc(F)cc2)S(C)(=O)=O)nnc1SCC(=O)c1cn(C)c2ccccc12
25 | 105 | CN(C)S(=O)(=O)c1ccc2nc(NC(=O)c3ccc4c(c3)OCCO4)sc2c1
26 | 120 | O=C(Cn1c2ccccc2c2nc3ccccc3nc21)c1ccccc1
27 | 136 | C=CCN1/C(=C/C=C/c2n(C/C=C\S(=O)(=O)[O-])c3cc(C(=O)OCC)ccc3[n+]2CC)N(CC)c2ccc(C(=O)OCC)cc21
28 | 94 | CCN1/C(=C\C=C\c2n(CC)c3cc([N+](C)(C)C)ccc3[n+]2CC)N(CC)c2cc([N+](C)(C)C)ccc21
29 | -62* | CCN1/C(=C/C=C/c2n(CC)c3cc(Cl)ccc3[n+]2Cc2ccccc2)N(Cc2ccccc2)c2ccc(Cl)cc21
30 | 101 | CCOC(=O)c1cc(=O)c2ccccc2[nH]1
31 | -60* | COc1cccc(C2=CC(c3ccccc3F)n3ncc(C(=O)Nc4ccc(F)cc4)c3N2)c1 (stereo not given)
32 | 105 | COc1ccc(C2=CC(c3ccccc3F)n3ncc(C(=O)Nc4ccc(C)cc4)c3N2)cc1 (stereo not given)
33 | 101 | COc1cccc(C2=CC(c3ccccc3F)n3ncc(C(=O)Nc4cc(Cl)ccc4C)c3N2)c1 (stereo not given)
34 | 97 | O=C(NCc1ccc2c(c1)OCO2)c1ccc2noc(-c3ccc(Cl)cc3)c2c1
35 | 98 | Cc1ccc(-c2cnnc(-n3nc(C)c4c3NC(=O)CC4c3ccc(C)cc3)n2)cc1 (stereo not given)
36 | 108 | O=c1/c(=C/c2ccc(-c3ccc(F)cc3)o2)sc2nc3cc(Br)cnc3n12
37 | 100 | CCOC(=O)c1sc(NC(=O)C=C(C)C)c(C#N)c1C
38 | 106 | CCOC(=O)c1sc(NC(=O)C2c3ccccc3Oc3ccccc32)c(C#N)c1C
39 | -7.6* | CCOC(=O)c1sc(N/C=C(\C#N)c2nc3cc(Cl)ccc3o2)c(C#N)c1C
40 | 106 | COc1ccccc1-c1cc2n(C)c(C)c(CCC(=O)NCc3ccc4c(c3)OCO4)c(=O)n2n1

Some of these compounds in order of the GIV Gai3 FP value, descending:
entry | GIV Gai3 FP | canonical_smiles
27 | 136 | C=CCN1/C(=C/C=C/c2n(C/C=C\S(=O)(=O)[O-])c3cc(C(=O)OCC)ccc3[n+]2CC)N(CC)c2ccc(C(=O)OCC)cc21
38 | 106 | CCOC(=O)c1sc(NC(=O)C2c3ccccc3Oc3ccccc32)c(C#N)c1C
37 | 100 | CCOC(=O)c1sc(NC(=O)C=C(C)C)c(C#N)c1C
39 | -7.6* | CCOC(=O)c1sc(N/C=C(\C#N)c2nc3cc(Cl)ccc3o2)c(C#N)c1C

The main list resumes with the 3 entries that preceded the break.
entry | GIV Gai3 FP | canonical_smiles
38 | 106 | CCOC(=O)c1sc(NC(=O)C2c3ccccc3Oc3ccccc32)c(C#N)c1C
39 | -7.6* | CCOC(=O)c1sc(N/C=C(\C#N)c2nc3cc(Cl)ccc3o2)c(C#N)c1C
40 | 106 | COc1ccccc1-c1cc2n(C)c(C)c(CCC(=O)NCc3ccc4c(c3)OCO4)c(=O)n2n1
41 | 156 | N#Cc1c(-c2ccc3c(c2)OCO3)cc(-c2ccccc2O)[nH]c1=O
42 | -54* | N#Cc1c(N)oc(-c2ccc3c(c2)OCO3)c1-c1ccc2c(c1)OCO2
43 | 111 | N#Cc1c(-c2ccc3c(c2)OCO3)cc(-c2ccc(F)cc2)nc1N
44 | 100 | CCn1c(=O)n(CC)c2cc(NC(=O)CSc3nnc(-c4cc5ccccc5o4)n3C)ccc21
45 | 101 | CC1(C)CC(=O)C=C(NCc2ccc(S(N)(=O)=O)cc2)C1
46 | 110 | C=C(C)Cn1c(CCCN2CCCCC2)nc2ccccc21
47 | 113 | CCOC(=O)N1CC=C2C(C#N)=C(N)C(C#N)(C#N)C(c3ccc(-c4ccccc4)cc3)C2C1 (stereo not given)
48 | -31* | CCOC(=O)C1(C#N)C(=O)C(C#N)=C2CCCCC2C1c1ccccc1 (stereo not given)
49 | 100 | CCOC(=O)C1=C(C)NC2=C(C(=O)CCC2)C1c1ccccc1 (stereo not given)
50 | 100 | CCCn1c(Cn2ccnc2C)nc2cc(NC(C)=O)ccc21
51 | 108 | O=C(c1csc(S(=O)(=O)N2CCOCC2)c1)N1CCCCC1
52 | 106 | COc1ccc(C(CC(=O)O)NS(=O)(=O)c2cccc3nsnc23)cc1 (stereo not given)
53 | 36* | Nc1nnnn1N=Cc1ccc(-c2ccc3c(c2)COC3=O)o1
54 | 102 | N#CC(C#N)=Cc1ccc(-c2ccc3c(c2)COC3=O)o1
55 | 98 | CC1=NN(c2ccc(S(N)(=O)=O)cc2)C(=O)/C1=C/c1ccc(-c2ccc3c(c2)C(=O)OC3)o1
56 | 111 | COc1ccc(-c2noc(CCCn3c(=O)[nH]c4cc5c(cc4c3=O)OCO5)n2)cc1OC
57 | 102 | CCn1c(CN(c2ccc(F)cc2)S(C)(=O)=O)nnc1SCC(=O)Nc1ncc(C)s1
58 | 121 | Cc1c(NC(=O)CSc2nc3ccc(NC(=O)c4ccccc4Cl)cc3s2)c(=O)n(-c2ccccc2)n1C
59 | -88* | Cn1cccc1/C=C1\CCC/C(=C\c2cccn2C)C1=O
60 | 111 | Cn1cccc1C=C1C(=O)c2ccccc2C1=O

entry | GIV Gai3 FP | canonical_smiles
61 | 101 | COc1ccc2c(c1)CC/C(=C\c1cccn1C)C2=O
62 | 100 | O=C(CC1CSc2ccccc2NC1=O)NC1CCCCC1 (stereo not given)
63 | 102 | CN1C(=O)Cc2cc(S(=O)(=O)N3CCCN(c4nc5cccnc5s4)CC3)ccc21
64 | 108 | COc1ccc(NS(=O)(=O)c2cc(-c3c(C)nn4c3NC(=O)CCC4=O)ccc2C)c(OC)c1
65 | 139 | O=C(Oc1ccc2cc(-c3nc4ccccc4s3)c(=O)oc2c1)c1ccccc1
66 | -79* | CC(=O)Oc1ccc2cc(-c3nc4c(s3)CCc3ccccc3-4)c(=O)oc2c1
67 | 173 | CC(=O)Oc1ccc2cc(-c3nnc(-c4ccccc4)o3)c(=O)oc2c1
68 | 103 | COc1cc(OC)c(NC(=O)c2cc(C(F)(F)F)n(C)n2)cc1Cl
69 | 45* | O=C1c2ccccc2-c2onc3c(NCCO)cc(NC4CCCCC4)c1c23
70 | 130 | O=C(O)CCCNc1cc(N2CCN(C3CCCCC3)CC2)c2noc3c2c1C(=O)c1ccccc1-3
